# Measurements: patent US20070203183A1, “Diaryl piperidines as CB1 modulators” (Schering Corporation, priority 2006, published 2007)
# Chains of the proteins cited; added tags and fusions are not shown.
# UniProt P21554, whole entry: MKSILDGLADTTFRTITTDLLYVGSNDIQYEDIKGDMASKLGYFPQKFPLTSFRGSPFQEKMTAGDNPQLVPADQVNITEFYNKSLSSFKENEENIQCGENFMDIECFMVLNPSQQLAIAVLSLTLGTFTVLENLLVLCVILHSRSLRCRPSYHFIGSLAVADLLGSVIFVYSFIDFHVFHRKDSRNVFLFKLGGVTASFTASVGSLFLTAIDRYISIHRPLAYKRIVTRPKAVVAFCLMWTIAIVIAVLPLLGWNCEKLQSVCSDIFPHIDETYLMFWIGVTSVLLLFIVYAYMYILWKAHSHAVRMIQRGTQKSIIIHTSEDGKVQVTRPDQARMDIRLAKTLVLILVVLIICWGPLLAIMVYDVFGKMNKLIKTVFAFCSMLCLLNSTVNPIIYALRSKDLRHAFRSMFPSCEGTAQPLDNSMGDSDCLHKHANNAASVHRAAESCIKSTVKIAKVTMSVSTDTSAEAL
# Target: cannabinoid CB1 (Homo sapiens, UniProt P21554)
# Assay: Competition binding assay for cannabinoid CB1 affinity (3H-CP55,940 displacement, membranes)
# Conditions: read-out: Ki values; competition with 0.5 nM 3H-CP55,940; Ki by Cheng-Prusoff; approximate values; receptor subtype not given
smiles,measurement,value
O=C(NC[C@@H]1CC[C@@H](c2ccc(Cl)cc2Cl)N(c2ccc(Cl)cc2)C1)c1ccc(F)cc1,Ki,7 nM
